What was measured:
[1] = molecular target: T1, Leukotriene A-4 hydrolase (Homo sapiens, UniProt P09960); assay: Inhibition of peptidase activity of human recombinant LTA4H expressed in Escherichia coli BL21-AI/pRARE
T1 sequence (P09960 whole entry): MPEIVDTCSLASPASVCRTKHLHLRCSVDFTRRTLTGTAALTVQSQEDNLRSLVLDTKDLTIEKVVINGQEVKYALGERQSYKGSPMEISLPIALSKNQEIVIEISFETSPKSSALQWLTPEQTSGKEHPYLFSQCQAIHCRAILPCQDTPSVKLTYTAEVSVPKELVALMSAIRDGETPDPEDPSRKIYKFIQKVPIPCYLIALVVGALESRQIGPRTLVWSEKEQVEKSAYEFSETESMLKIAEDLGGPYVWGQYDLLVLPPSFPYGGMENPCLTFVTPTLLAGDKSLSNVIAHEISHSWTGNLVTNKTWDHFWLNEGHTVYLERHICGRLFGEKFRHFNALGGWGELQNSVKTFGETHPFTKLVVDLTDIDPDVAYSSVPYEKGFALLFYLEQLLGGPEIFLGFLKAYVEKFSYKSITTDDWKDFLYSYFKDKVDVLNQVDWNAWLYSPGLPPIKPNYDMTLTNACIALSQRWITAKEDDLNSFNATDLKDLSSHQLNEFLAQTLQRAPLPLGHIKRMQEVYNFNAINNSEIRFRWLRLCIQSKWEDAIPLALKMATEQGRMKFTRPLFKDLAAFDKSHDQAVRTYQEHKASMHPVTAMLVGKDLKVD

[2] = molecular target: T1, Leukotriene A-4 hydrolase; assay: Inhibition of hydrolase activity of human recombinant LTA4H expressed in Escherichia coli BL21-AI/pRARE assessed as LTB4 formation by tandem quadrupole mass spectrometry

IC50 [1] [µM]	IC50 [2] [µM]	SMILES
3670		O=C(c1ccncc1)c1ccc(F)cc1
	0.0708	O=C(O)CCCN1CCC[C@@H]1COc1ccc(Oc2ccc(Cl)cc2)cc1

Source: ChEMBL document CHEMBL1158490, “Discovery of leukotriene A4 hydrolase inhibitors using metabolomics biased fragment crystallography” (J Med Chem, 2009)
